Data as given in patent US11589575B2, “Injectable preserving medium for preserving cells from placental blood, from bone marrow and from peripheral blood” (ETABLISSEMENT FRANCAIS DU SANG, priority 2015, dated 2023).

Assays:
[1] = system: placental blood CD34+ cells amplified ex vivo; details: periods longer than 6 hours; cited from earlier work
[2] = Stability of the preserving medium (pH, ageing); assay type: physicochemical; details: accelerated ageing conditions at 37° C.
Text: Human albumin is commercially available in injectable quality, in particular from Baxter or under the trade names Albunorm®, Flexbumin®, Vialebex® or Ydralbum®. The solution comprises at least 1 g/l of albumin, preferably at least 5, 10 or 15 g/l. The amount of human albumin in the solution may be between 1 and 100 g/l of solution, preferably between 5 and 40 g/l of solution, more preferably between 5 and 20 g/l, and further preferably 15 g/l of solution. In other words, the solution comprises 0.1 to 10% of human albumin, preferably 0.5 to 4%, more preferably 0.5 to 2%, and further preferably 1.5%.
Finally, the components of 12 pharmaceutical preparations were included in the formulation of the cell preserving biological medium. […] These pouches are used in the pharmaceutical industry to package injectable preparations, and by suppliers of biological reagents for the preservation inter alia of culture media.

Row | Substance | functionality of the progenitors and of HSCs [1] | stabilising the medium [2]
1 | 4% solution of human albumin: 4% solution of human albumin used to resuspend cells for injection | major loss of functionality | 
2 | Product C1: Human albumin 20% solution (human albumin 200 g, caprylic acid, qs 1 litre) |  | major role in stabilising the medium
